{
  "source": "paper PMC10322781",
  "about": "(Archives of Toxicology, 2023)",
  "key": {"[1]": {"parameters": "method as in Zhang et al. [2008]", "details": "600 mg rifampicin; ref Zhang et al. [2008]; cited from earlier work"}, "[2]": {"system": "LS180 cells", "format": "in vitro ADME", "details": "human", "procedure": "The UPLC-MS/MS system consisted of a triple stage quadrupole mass spectrometer (Waters Xevo TQ-S, Milford, MA, USA) and an Acquity Classic UPLC® (Waters). Mass spectrometric analysis was performed by selective reaction monitoring using positive electrospray ionization. […] For 25-[…], the mass transition m/z 749.34 → 399.17 was monitored, which constitutes the use of a product ion generated during electrospray ionization as precursor. Because of their considerable molecular size, rifamycins were chromatographically separated on a Waters Peptide BEH C18 Column (300 Å, 1.7 μm, 2.1 mm × 50 mm) to foster optimal mass transfer kinetics. The mobile phase was composed of H20/ACN (95/5, v/v) + 0.1% FA (eluent A) and ACN + 0.1% FA (eluent B). […] The total run time was 4 min, and the column was heated to 60 °C. The injection volume was set to 20 μL with a flow rate of 0.5 mL/min. A pellet of untreated LS180 cells (500,000 cells/sample) was used for calibration standards and QC standard. […] To determine intracellular rifamycin concentrations, measured compound concentrations were normalized to the total pellet volume. This was achieved by multiplying the measured mean cellular volume of a LS180 cell (CASY cell counter, Schärfe System, Reutlingen, Germany) by the mean cell number of four wells of an identically prepared and treated cell culture plate. […]"}, "[3]": {"details": "repeated administration of 10 mg rifampicin to humans; ref Lutz et al., CPT [2018a]; cited from earlier work"}},
  "data": [
    {"smiles": "CO[C@H]1/C=C/O[C@@]2(C)Oc3c(C)c(O)c4c(O)c(c(/C=N/N5CCN(C)CC5)c(O)c4c3C2=O)NC(=O)/C(C)=C\\C=C\\[C@H](C)[C@H](O)[C@@H](C)[C@@H](O)[C@@H](C)[C@H](OC(C)=O)[C@@H]1C", "note": "[Rifampicin]", "values": [
      {"measurement": "expected drug concentration in the gut lumen", "setting": "[1]", "value": "approx. 2.9 mM"},
      {"measurement": "time to reach intracellular concentration equilibrium", "setting": "[2]", "value": 2, "unit": "h"},
      {"measurement": "molar metabolite-to-parent ratio (25-O-deacetyl metabolite)", "setting": "[2]; 10 µM", "value": 0.01},
      {"measurement": "AUC and Cmax of midazolam or dabigatran etexilate decreased to", "setting": "[3]", "value": 50, "unit": "%"}
    ]}
  ]
}
